From patent US20130039956A1, “USE OF NITROCARBOXYLIC ACIDS FOR THE TREATMENT, DIAGNOSIS AND PROPHYLAXIS OF AGGRESSIVE HEALING PATTERNS” (priority 2010, published 2013) come the findings set out here.

The subject of the series is Human epithelial lung cells (A549). The series is described as follows: Membrane protein mediated cytotoxicity (NaF) in epithelial cells, MTT assay. The following applies: 10 and 50 μmol, 2 hours preincubation, NaF 1-8 mmol; compared with native FA.

Turning to 9,10-nitro-cis-oleic acid [compound 10], the “Relative effect on NaF-induced cytotoxicity” value is “+”.
